Target: Histone deacetylase
Experiment: Inhibition of HDAC in human HeLa cell extract using Boc-Lys (acetyl)-AMC as substrate incubated for 10 mins prior to substrate addition measured after 30 mins by fluorescence assay
Type: protein assay

IC50: 369.8 nM
Structure (SMILES): O=C(/C=C/c1cccc(OC[C@H](Cc2c[nH]c3ccccc23)NC(=O)c2ccc(Cl)cc2)c1)NO
